Eleven compounds from PubChem BioAssay AID1465 (SRMLSC, 2008) can be followed below.

The list shows a part of the results. Results with a measured potency or affinity are listed apart. Some of these compounds have results that are not shown, active ones among them. Active and inactive are the calls of the source.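 How the source made its calls: active means fold induction of absorbance versus untreated yeast above a set limit, then at least 30% activation at any dose in follow-up; inconclusive means repeats straddling the limit, or above it without dose testing; inactive means fold induction below the set limit.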

As usually defined, the fold induction is the ratio of treated to control signal.

The nature of the test: enhancers of respiration in Yfh1-depleted yeast, dose response, Friedreich's ataxia, plus single-dose screen (AID 1465). The note with it: S. cerevisiae Yfh1-off respiration, WST-1 reduction, 72 h; at 50 µM; stronger effect = higher value. On the technique in general: Formazan colour is commonly taken as a measure of viable cells.
Turning to `O=C(NCC1(N2CCCCC2)CCCCC1)c1cc([N+](=O)[O-])ccc1Cl`, the fold induction is inactive: 0.87.
With `CCN(CC)CC(C)C(C)OC(=O)C(O)(c1ccccc1)c1ccccc1` (stereo unspecified) the figure was inactive: 1.04; with `CC(C)N1C(=O)CC2(CCN(CCOC(=O)C(O)(c3ccccc3)c3ccccc3)CC2)C1=O`, inactive: 1.06; with `Cc1ccccc1C(=O)NCC1(N2CCCCC2)CCCCC1`, inactive: 1.1.
The value for `CN(C)C1CCCC1OC(=O)C(O)(c1ccccc1)c1ccccc1` (stereo unspecified) was inactive: 0.92.
With `C=CCN1CCN(CCOC(=O)C(O)(c2ccccc2)c2ccccc2)CC1` the figure was inactive: 1.13.
Take `CCN1CCCC(OC(=O)C2(O)c3ccccc3C=Cc3ccccc32)C1` (stereo unspecified): the fold induction is inactive: 0.99.
The value for `COc1cccc(C(=O)NCC2(N3CCCCC3)CCCCC2)c1` was inactive: 0.95.
The value for `O=C(OC1CN2CCC1CC2)C(CO)(c1ccccc1)c1ccccc1` (stereo unspecified) was inactive: 0.95; that for `COc1ccc(Br)c(C(=O)NCC2(N3CCCCC3)CCCCC2)c1` was inactive: 1; that for `CN(C)c1cccc(C(=O)NCC2(N(C)C)CCCCC2)c1` was inactive: 1.12.
